The test is filed under the species Homo sapiens. Nature of the test: Selectivity ratio of IC50 for DDX39A (unknown origin) expressed in Escherichia coli BL21(Rosetta 2) to IC50 for eIF4A1 (unknown origin) expressed in Escherichia coli BL21(DE3).

Consider `CC(C)=C[C@@H]1C[C@H](C)c2c(O)cc(C)c3c2C1=C(C)C(=O)C3=O` [ELISABATIN A], for which the Ratio IC50 came out at 20.

Source of the values: ChEMBL document CHEMBL4043127, “ATP-competitive, marine derived natural products that target the DEAD box helicase, eIF4A” (Bioorg Med Chem Lett, 2017).
